ClpP mod: qHTS Assay for Activators of ClpP. purified B. subtilis ClpP, FRET peptide cleavage, 20 min. Potency, µM (series often up to 57.5 µM). 340,000 compounds, 1.9% hits; active = well fitted falling curve with a large enough effect; inconclusive = small, poorly fitted or top-dose-only effect; inactive = no such curve, though single readings can be large or run the other way; also: the source files actives as falling curves though it sought activators and does not explain the sign; nearly all actives have a fitted effect of over 65% in size
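Buffer: 100 mM Tris/HCl pH8, 100 mM KCl, 0.05% low protease BSA, 2.5% glycerol, 0.01% Tween-20. ClpP 10 microg/mL final; 20 min RT; delta FRET normalized to ADEP and DMSO controls.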
MBNL1-CUG inh: blocks human MBNL1 binding to CUG repeat RNA | Q9NR56 | AID 2675 | TR-FRET MBNL1-His/biotin-(CUG)12 binding, 665/545 ratio | 280,000 compounds, 0.036% hits | Potency, µM (titrated, usually from 57.5 µM), actives largely listed as inhibitors; active = well fitted inhibition curve with a large enough effect in the signal ratio, with a control signal flat, not every such curve was filed as active; inconclusive = small, poorly fitted or top-dose-only effect, or effect the other way, or a change in a side signal; inactive = no such curve, though single readings can be large or run the other way; the % refers to the signal ratio
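Inhibition of protein-RNA binding appears as loss of TR-FRET between terbium anti-His antibody on MBNL1-His and streptavidin-XL665 on biotin-(CUG)12. Activity is normalized to buffer-only and uninhibited-complex controls.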
CBFb-RUNX1 inh: blocks binding between human CBF-beta and RUNX1. AlphaScreen CBFb-His/RUNX1-biotin binding, biochemical. Potency, µM (series often up to 59.8 µM), usual class: inhibitors. 230,000 tested, under 10 active; active = well fitted curve in the direction sought with a large enough effect; inconclusive = small, poorly fitted or top-dose-only effect, or effect the other way, or another doubt; inactive = no such curve, though single readings can be large or run the other way
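Proteins preincubated together for 20 min at RT before compound addition; 15 min later, nickel and streptavidin beads were added and left 90 min prior to AlphaScreen measurement.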
Rango release inh: inhibition of RanGTP-driven Rango-importin beta dissociation; Biochemical FRET Rango-importin beta, RanGTP-induced dissociation; Potency, µM (top dose mostly 46.1 µM); 340,000 compounds, 0.071% hits; AID 540253; also: nearly all actives have a fitted effect of over 45% in size
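Recombinant Rango FRET biosensor (EYFP–snurportin 1 IBB–cerulean CFP10) at 0.1 uM premixed with 0.25 uM importin beta in PBS, 1 mM DTT, 0.02% Tween-20, 0.1% BSA. Compound added 5 min; RanGTP-RCC1 (0.6 uM Ran, 2 mM GTP, 0.2 uM RCC1) then triggers release, read at 45 min.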
Rango complex inh: Rango-importin beta binding inhibition; Q14974; Rango CFP/YFP FRET sensor + importin beta, 45 min; 340,000 compounds, 0.031% hits; AID 540263; Potency, µM (titrated, usually from 92.2 µM); also: nearly all actives have a fitted effect of over 15% in size
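Inhibition scored from the CFP 486 nm/YFP 530 nm FRET ratio 45 min after adding 0.125 microM importin beta to 50 nM Rango biosensor preincubated 5 min with compound (room temperature, PBS with DTT, Tween-20, BSA). No-importin wells as positive control.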
Hits are given with their value; 0 = inactive; ? = inconclusive; - = no result. The sample as a whole holds a higher share of hits than the screen did. Unless noted, calls follow the shape of the full dose curve.

SMILES | ClpP mod | MBNL1-CUG inh | CBFb-RUNX1 inh | Rango release inh | Rango complex inh
CC(C)N(CC#CC(O)(c1ccccc1)c1ccccc1)CCO | 0 | 0 | 0 | 0 | 0
CC(C)N(CC#CC(O)(c1ccccc1)c1ccccc1)C(C)C | 32µM | - | 0 | 0 | 0
Cc1cccc(NC(=O)c2cc3ccccc3oc2=O)c1 | 0 | 0 | - | 12µM | ?
CN(C)CCNC(=O)c1cc2ccccc2oc1=O | 28µM | ? | 0 | 0 | 0
O=C(Nc1cccc(-c2cc3ccccc3oc2=O)c1)c1ccc(Br)o1 | 35µM | ? | 0 | 0 | 0
CCn1nnc(NC(=O)c2cccc(-c3cc4ccccc4oc3=O)c2)n1 | 14µM | ? | 0 | 0 | 0
O=C(Nc1cccnc1)c1cccc(-c2cc3ccccc3oc2=O)c1 | - | 0 | 0 | 0 | ?
COc1ccc(-c2cc3ccccc3oc2=O)cc1NC(=O)c1ccc(Br)o1 | 0 | 0 | 0 | 0 | 0
O=C(NCCc1ccccc1)c1cc2ccccc2oc1=O | 0 | 0 | - | 0 | 0
O=C(Cn1nc(Cl)nc1Cl)c1cc2ccccc2oc1=O | 28µM | ? | 0 | 0 | ?
Cc1cc(C)c[n+](CC(=O)c2cc3ccccc3oc2=O)c1 | 28µM | ? | 0 | 0 | 0
CC(=O)OCCNC(=O)c1cc2ccccc2oc1=O | 25µM | ? | 0 | 0 | 0
O=C(NCCc1ccc(F)cc1)c1cc2ccccc2oc1=O | 0 | 0 | - | 0 | 0
COc1ccc(CCNC(=O)c2cc3ccccc3oc2=O)cc1 | 0 | 0 | - | 0 | 0
Cc1ccc[n+](CC(=O)c2cc3ccccc3oc2=O)c1 | ? | ? | 0 | 0 | 0
CCCC(=O)OCCNC(=O)c1cc2ccccc2oc1=O | 18µM | ? | 0 | 0 | 0
Cc1ccc2c(C(=O)CNc3nc(C)c(C)s3)c(C)[nH]c2c1 | 0 | - | - | - | -
CCN(CCCNC(=O)c1ccc(Sc2ccc(F)cc2)c(NC(C)=O)c1)c1ccccc1 | 0 | - | - | - | -
O=C(NCCCN1CCOCC1)c1cc2ccccc2oc1=O | 28µM | ? | 0 | 0 | 0
O=C(NCCCCN1CCOCC1)c1cc2ccccc2o1 | - | - | 0 | - | -
CCOC(=O)c1c(-c2ccccc2Cl)cn2ccccc12 | 25µM | 0 | 0 | 0 | 0
COc1ccc(OC)c2c(C)ccnc12 | 0 | - | - | - | -
O=S(=O)(Cc1ccc(Cl)cc1)c1ccccc1-c1nnc(-c2ccccc2)o1 | 32µM | 0 | 0 | 0 | 0
O=C(CCS(=O)(=O)c1nc(-c2cccs2)cc(C(F)(F)F)n1)Nc1ccc(Br)cc1 | 32µM | - | - | - | -
CNc1c(Cl)cc(C=O)cc1Cl | 0 | - | - | - | -
SMILES | ClpP mod | MBNL1-CUG inh | CBFb-RUNX1 inh | Rango release inh | Rango complex inh
O=C(Nc1ccc(Cl)cc1)c1cc2nc(-c3ccco3)cc(C(F)(F)F)n2n1 | 14µM | 0 | 0 | ? | ?
Cc1nn(C)c(C)c1NC(=O)c1cc2nc(-c3ccco3)cc(C(F)(F)F)n2n1 | - | ? | 0 | 0 | ?
CC(C(=O)NCc1cccc(Br)c1)n1ncn2cccc2c1=O (stereo unspecified) | 0 | - | - | - | -
O=Cc1c[nH]c2cccc(OCc3ccccc3)c12 | 0 | - | - | 0 | 58µM
CNc1oc(-c2ccccc2)nc1C#N | 0 | 0 | 0 | 0 | 0
N#Cc1nc(-c2ccco2)oc1NCc1ccc(F)cc1 | 8.9µM | 0 | 0 | 0 | 0
CC(Nc1oc(-c2ccco2)nc1C#N)c1ccccc1 (stereo unspecified) | 7.9µM | 0 | 0 | 0 | ?
N#Cc1nc(-c2ccco2)oc1NCc1cccnc1 | 0 | ? | 0 | 0 | 0
CC(C)CNc1oc(-c2ccco2)nc1C#N | 18µM | 0 | 0 | 0 | 0
CC(=O)c1ccc(NC(=O)CCc2c(C)nc3c(c2C)c(=O)n(C)c(=O)n3C)cc1 | 0 | - | - | - | -
COc1ccccc1NCc1cccn1-c1nnc(N2CCOCC2)s1 | 0 | - | - | - | -
CCOc1cccc2sc(N3CCN(C(=O)c4ccc5ncsc5c4)CC3)nc12 | 22µM | - | - | 0 | 0
COc1ccc(OC)c2sc(N3CCN(C(=O)c4ccc5ncsc5c4)CC3)nc12 | - | - | - | 0 | 0
CCNC(=O)c1c(NC(=O)c2nc(S(=O)(=O)CC)ncc2Cl)sc2c1CCCC2 | 0 | - | - | - | -
CC1=CC(c2ccccc2)n2nc(N3C(=O)CCC3=O)nc2N1 (stereo unspecified) | 28µM | 0 | 0 | ? | 0
CC1=CC(c2ccccc2)n2nc(N3C(=O)c4ccccc4C3=O)nc2N1 (stereo unspecified) | 0 | ? | 0 | 0 | 0

High-throughput results from PubChem.
